# From PubChem BioAssay (EPA / NIEHS)
# Chains of the proteins cited; added tags and fusions are not shown.
# UniProt P49327, whole entry: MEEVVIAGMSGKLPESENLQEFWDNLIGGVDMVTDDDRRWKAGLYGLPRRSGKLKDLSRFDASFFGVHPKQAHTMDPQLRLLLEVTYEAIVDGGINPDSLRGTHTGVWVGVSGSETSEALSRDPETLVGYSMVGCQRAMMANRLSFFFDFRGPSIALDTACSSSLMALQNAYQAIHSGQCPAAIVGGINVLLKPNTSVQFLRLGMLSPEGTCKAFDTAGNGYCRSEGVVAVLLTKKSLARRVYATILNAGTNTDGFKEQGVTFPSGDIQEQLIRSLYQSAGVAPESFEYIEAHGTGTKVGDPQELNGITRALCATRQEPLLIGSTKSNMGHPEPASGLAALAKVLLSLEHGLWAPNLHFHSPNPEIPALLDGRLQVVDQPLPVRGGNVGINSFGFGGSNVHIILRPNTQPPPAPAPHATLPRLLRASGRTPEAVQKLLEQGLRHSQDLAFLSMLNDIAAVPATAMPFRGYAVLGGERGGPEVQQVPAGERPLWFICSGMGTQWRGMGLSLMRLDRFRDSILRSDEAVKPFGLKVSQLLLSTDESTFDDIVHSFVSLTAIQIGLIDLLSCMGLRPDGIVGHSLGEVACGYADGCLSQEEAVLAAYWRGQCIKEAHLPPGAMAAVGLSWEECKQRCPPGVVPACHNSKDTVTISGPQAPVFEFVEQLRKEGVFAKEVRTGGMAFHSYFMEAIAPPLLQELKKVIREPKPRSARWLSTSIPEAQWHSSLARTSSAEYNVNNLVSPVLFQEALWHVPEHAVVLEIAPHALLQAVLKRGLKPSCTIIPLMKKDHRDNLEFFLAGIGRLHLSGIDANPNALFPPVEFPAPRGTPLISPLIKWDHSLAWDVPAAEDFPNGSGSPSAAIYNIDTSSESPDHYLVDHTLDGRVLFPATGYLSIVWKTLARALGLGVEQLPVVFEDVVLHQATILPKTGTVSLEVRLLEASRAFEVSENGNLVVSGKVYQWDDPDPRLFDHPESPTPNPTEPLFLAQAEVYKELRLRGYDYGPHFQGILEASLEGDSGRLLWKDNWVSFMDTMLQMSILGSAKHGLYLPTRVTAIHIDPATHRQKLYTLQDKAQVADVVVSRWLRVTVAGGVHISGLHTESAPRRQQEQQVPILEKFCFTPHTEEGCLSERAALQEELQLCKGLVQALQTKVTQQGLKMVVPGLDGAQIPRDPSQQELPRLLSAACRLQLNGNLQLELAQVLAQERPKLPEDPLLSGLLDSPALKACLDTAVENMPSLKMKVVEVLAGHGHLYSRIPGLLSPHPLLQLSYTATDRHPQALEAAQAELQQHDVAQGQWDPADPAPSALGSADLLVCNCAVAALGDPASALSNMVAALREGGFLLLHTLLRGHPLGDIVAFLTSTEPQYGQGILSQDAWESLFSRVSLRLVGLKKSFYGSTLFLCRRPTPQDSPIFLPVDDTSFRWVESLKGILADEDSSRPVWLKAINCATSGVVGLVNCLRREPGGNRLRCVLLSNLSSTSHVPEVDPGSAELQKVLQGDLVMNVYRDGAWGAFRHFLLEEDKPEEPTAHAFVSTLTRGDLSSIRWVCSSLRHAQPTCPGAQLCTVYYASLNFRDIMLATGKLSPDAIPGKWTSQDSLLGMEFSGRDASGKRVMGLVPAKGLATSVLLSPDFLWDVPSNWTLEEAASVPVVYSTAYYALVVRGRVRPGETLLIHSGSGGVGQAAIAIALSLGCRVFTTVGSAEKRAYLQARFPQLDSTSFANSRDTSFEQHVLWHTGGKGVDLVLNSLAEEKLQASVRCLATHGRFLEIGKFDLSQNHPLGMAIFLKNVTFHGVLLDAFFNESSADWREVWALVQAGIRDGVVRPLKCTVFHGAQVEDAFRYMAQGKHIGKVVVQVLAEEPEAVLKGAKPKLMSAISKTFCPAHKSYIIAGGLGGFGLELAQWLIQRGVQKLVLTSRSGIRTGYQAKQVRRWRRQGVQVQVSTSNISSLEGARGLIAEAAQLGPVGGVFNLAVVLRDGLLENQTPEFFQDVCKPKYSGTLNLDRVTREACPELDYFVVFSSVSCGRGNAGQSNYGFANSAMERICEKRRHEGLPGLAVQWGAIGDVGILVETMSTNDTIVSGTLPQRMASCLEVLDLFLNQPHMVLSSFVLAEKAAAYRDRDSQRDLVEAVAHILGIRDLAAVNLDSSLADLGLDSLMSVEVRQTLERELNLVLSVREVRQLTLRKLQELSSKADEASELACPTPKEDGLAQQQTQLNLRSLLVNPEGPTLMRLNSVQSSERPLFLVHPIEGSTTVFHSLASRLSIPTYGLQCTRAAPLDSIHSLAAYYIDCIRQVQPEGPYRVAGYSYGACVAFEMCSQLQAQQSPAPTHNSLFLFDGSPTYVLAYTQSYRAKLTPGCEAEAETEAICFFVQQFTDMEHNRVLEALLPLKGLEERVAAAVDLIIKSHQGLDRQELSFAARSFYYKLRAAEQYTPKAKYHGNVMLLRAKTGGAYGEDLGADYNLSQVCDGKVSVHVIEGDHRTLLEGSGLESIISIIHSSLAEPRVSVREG
# UniProt Q9UNQ0, whole entry: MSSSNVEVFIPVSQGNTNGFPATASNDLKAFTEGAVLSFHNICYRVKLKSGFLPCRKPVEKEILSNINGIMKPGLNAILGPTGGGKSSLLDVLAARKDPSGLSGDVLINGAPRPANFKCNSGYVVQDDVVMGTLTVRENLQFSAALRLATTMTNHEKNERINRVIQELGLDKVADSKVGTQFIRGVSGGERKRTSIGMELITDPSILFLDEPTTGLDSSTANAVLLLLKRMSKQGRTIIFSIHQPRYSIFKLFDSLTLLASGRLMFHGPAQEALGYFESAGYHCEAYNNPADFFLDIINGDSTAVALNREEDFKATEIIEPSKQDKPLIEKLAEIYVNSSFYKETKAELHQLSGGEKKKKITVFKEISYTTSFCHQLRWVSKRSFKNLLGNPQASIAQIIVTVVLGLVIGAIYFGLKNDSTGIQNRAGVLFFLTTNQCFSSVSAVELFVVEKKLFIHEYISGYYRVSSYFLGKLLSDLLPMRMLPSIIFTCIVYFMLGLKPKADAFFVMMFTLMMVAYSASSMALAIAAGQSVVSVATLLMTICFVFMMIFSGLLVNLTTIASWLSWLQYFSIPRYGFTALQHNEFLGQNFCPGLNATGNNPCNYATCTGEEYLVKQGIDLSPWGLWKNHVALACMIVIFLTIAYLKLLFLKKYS
# This is a selection; strong and weak results do not stand in their true shares. Activity calls are given as the source filed them. The calls were made as follows: active = hit-call score of the fitted dose curve at least 0.9, where 1 is the maximum; inactive = score below 0.9.
# Tests used:
# [1] = read-out: Fatty acid synthase (Homo sapiens) (UniProt P49327); assay: LTEA_HepaRG_FASN: Life Technologies and Expression Analysis (LTEA) Assay for Fatty Acid Synthase (FASN) using HepaRG (AID 2283448); conditions: actives raise or lower the signal; mRNA level, 48 h
# Procedure, shortened: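 Cells were plated, cultured 48 h, switched to serum-free induction medium, then dosed in duplicate (max 100 uM, half-log dilutions, 0.5% DMSO) for 48 h. RNA was then isolated and FASN quantified by qRT-PCR.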
# [2] = read-out: Cyclin D2 (CCND2), CCND2 (gene 894); assay: LTEA_HepaRG_CCND2: Life Technologies and Expression Analysis (LTEA) Assay for Cyclin D2 (CCND2) using HepaRG (AID 2283449); conditions: actives raise or lower the signal; mRNA level, 48 h
# Procedure, shortened: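 CCND2 transcript levels, quantified by qRT-PCR and normalised to three housekeeping genes, were fitted bidirectionally against 0.5% DMSO. HepaRG cultures were dosed 48 h in duplicate with an 8-point half-log series up to 100 uM.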
# [3] = read-out: Cyclin Dependent Kinase Inhibitor 1A (CDKN1A), CDKN1A (gene 1026); assay: LTEA_HepaRG_CDKN1A: Life Technologies and Expression Analysis (LTEA) Assay for Cyclin Dependent Kinase Inhibitor 1A (CDKN1A) using HepaRG (AID 2283450); conditions: actives raise or lower the signal; mRNA level, 48 h
# Procedure, shortened: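 Expression quantified by Fluidigm qRT-PCR with ACTB, GAPDH and POLR2A normalization, fitted bidirectionally against 0.5% DMSO. Cells: HepaRG, plated 48 h then treated 48 h in serum-free induction medium, top concentration 100 uM with half-log dilutions.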
# [4] = read-out: Cyclin D1 (CCND1), CCND1 (gene 595); assay: LTEA_HepaRG_CCND1: Life Technologies and Expression Analysis (LTEA) Assay for Cyclin D1 (CCND1) using HepaRG (AID 2283451); conditions: actives raise or lower the signal; mRNA level, 48 h
# Procedure, shortened: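 Expression of CCND1 was quantified by qRT-PCR on Fluidigm arrays using ACTB, GAPDH and POLR2A as reference genes. HepaRG cultures, plated 48 h beforehand, were dosed for 48 h at up to 100 uM (half-log, 8 points) in 0.5% DMSO.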
# [5] = read-out: catalase (CAT), CAT (gene 847); assay: LTEA_HepaRG_CAT: Life Technologies and Expression Analysis (LTEA) Assay for catalase (CAT) using HepaRG (AID 2283452); conditions: actives raise or lower the signal; mRNA level, 48 h
# Procedure, shortened: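 Expression of CAT was quantified by TaqMan qRT-PCR with ACTB/GAPDH/POLR2A normalization after 48 h chemical exposure of HepaRG. Eight-point half-log series, top 100 uM, in 0.5% DMSO; gain or loss fitted against vehicle.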
# [6] = read-out: flavin-containing dimethylaniline monooxygenases 3 (FMO3), FMO3 (gene 2328); assay: LTEA_HepaRG_FMO3: Life Technologies and Expression Analysis (LTEA) Assay for flavin-containing dimethylaniline monooxygenases 3 (FMO3) using HepaRG (AID 2283453); conditions: actives raise or lower the signal; mRNA level, 48 h
# Procedure, shortened: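 FMO3 transcript quantified by TaqMan qRT-PCR against three housekeeping genes after 48 h chemical exposure of HepaRG cells. Eight-point half-log series, top 100 uM, 0.5% DMSO vehicle; phenobarbital 1mM induction control; up- or down-regulation fitted.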
# [7] = read-out: Cytochrome P450 (CYP1A1), CYP1A1 (gene 1543); assay: LTEA_HepaRG_CYP1A1: Life Technologies and Expression Analysis (LTEA) Assay for Cytochrome P450 (CYP1A1) using HepaRG (AID 2283454); conditions: actives raise or lower the signal; mRNA level, 48 h
# Procedure, shortened: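 CYP1A1 transcript levels measured by Fluidigm qRT-PCR against three housekeeping genes, 48 h after chemical dosing of human HepaRG cells (highest concentration 100 uM, half-log steps, 0.5% DMSO vehicle). Gain or loss of signal fitted relative to DMSO.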
# [8] = read-out: CFLAR gene, CFLAR (gene 8837); assay: LTEA_HepaRG_CFLAR: Life Technologies and Expression Analysis (LTEA) Assay for CFLAR gene using HepaRG (AID 2283455); conditions: actives raise or lower the signal; mRNA level, 48 h
# Procedure, shortened: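 Transcript level by qRT-PCR (normalized to ACTB, GAPDH and POLR2A) after 48 h chemical exposure of HepaRG cells, top concentration 100 uM with half-log steps, 0.5% DMSO vehicle, duplicates; fitted bidirectionally against DMSO baseline.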
# [9] = read-out: Forkhead box O1 (FOXO1), FOXO1 (gene 2308); assay: LTEA_HepaRG_FOXO1: Life Technologies and Expression Analysis (LTEA) Assay for Forkhead box O1 (FOXO1) using HepaRG (AID 2283456); conditions: actives raise or lower the signal; mRNA level, 48 h
# Procedure, shortened: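 FOXO1 transcript quantified by qRT-PCR after 48 h chemical exposure (top 100 uM, half-log steps, 0.5% DMSO) of HepaRG cells, housekeeping-normalized (ACTB/GAPDH/POLR2A). Changes fitted in both directions relative to vehicle.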
# [10] = CEETOX_H295R_TESTO: CeeTox H295R High-throughput Steroidogenesis Assay for Testosterone (TESTO) (AID 2283457); conditions: actives raise or lower the signal
# Procedure, shortened: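 Testosterone secreted into the medium over 48 h by H295R cells (maximum passage 10) was quantified by LC-MS/MS after MTBE extraction. Fitted in both directions against DMSO, with concentrations diluted until MTT viability was ≥70%.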
# [11] = read-out: growth arrest and DNA damage 45 (GADD45A), GADD45A (gene 1647); assay: LTEA_HepaRG_GADD45A: Life Technologies and Expression Analysis (LTEA) Assay for growth arrest and DNA damage 45 (GADD45A) using HepaRG (AID 2283458); conditions: actives raise or lower the signal; mRNA level, 48 h
# Procedure, shortened: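 Transcript induction or loss, quantified by TaqMan qRT-PCR against three housekeeping genes, is the read-out. HepaRG cells received chemicals for 48 h across eight half-log concentrations from 100 uM in 0.5% DMSO; gain and loss fitted relative to DMSO.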
# [12] = read-out: Forkhead box O3 (FOXO3), FOXO3 (gene 2309); assay: LTEA_HepaRG_FOXO3: Life Technologies and Expression Analysis (LTEA) Assay for Forkhead box O3 (FOXO3) using HepaRG (AID 2283459); conditions: actives raise or lower the signal; mRNA level, 48 h
# Procedure, shortened: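 FOXO3 transcript measured by qRT-PCR (normalized to ACTB, GAPDH, POLR2A) after 48 h exposure of HepaRG cells in serum-free induction medium. Duplicates, eight half-log concentrations up to 100 uM, 0.5% DMSO; gain or loss fitted against DMSO.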
# [13] = read-out: ABC Transporter (ABCB1), ABCB1 (gene 5243); assay: LTEA_HepaRG_ABCB1: Life Technologies and Expression Analysis (LTEA) Assay for ABC Transporter (ABCB1) using HepaRG (AID 2283460); conditions: actives raise or lower the signal; mRNA level, 48 h
# Procedure, shortened: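 ABCB1 transcript level measured by TaqMan qRT-PCR against three housekeeping genes after 48 h chemical exposure of differentiated HepaRG cells. Top concentration 100 uM, half-log steps, eight points, 0.5% DMSO vehicle; bidirectional fit relative to DMSO.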
# [14] = read-out: growth arrest and DNA damage 45 (GADD45B), GADD45B (gene 4616); assay: LTEA_HepaRG_GADD45B: Life Technologies and Expression Analysis (LTEA) Assay for growth arrest and DNA damage 45 (GADD45B) using HepaRG (AID 2283461); conditions: actives raise or lower the signal; mRNA level, 48 h
# Procedure, shortened: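 Transcript level quantified by Fluidigm TaqMan qRT-PCR with three housekeeping genes for normalization, analyzed for up- or down-regulation against 0.5% DMSO. HepaRG cultures dosed 48 h at eight half-log concentrations up to 100 uM, duplicates.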
# [15] = read-out: ABC Transporter (ABCC3), ABCC3 (gene 8714); assay: LTEA_HepaRG_ABCC3: Life Technologies and Expression Analysis (LTEA) Assay for ABC Transporter (ABCC3) using HepaRG (AID 2283462); conditions: actives raise or lower the signal; mRNA level, 48 h
# Procedure, shortened: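 Transcript level by TaqMan qRT-PCR, normalised to three housekeeping genes, fitted in both directions relative to vehicle. Chemicals tested in duplicate at eight half-log concentrations up to 100 uM for 48 h on HepaRG cells (0.5% DMSO).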
# [16] = read-out: ABC Transporter (ABCB11), ABCB11 (gene 8647); assay: LTEA_HepaRG_ABCB11: Life Technologies and Expression Analysis (LTEA) Assay for ABC Transporter (ABCB11) using HepaRG (AID 2283463); conditions: actives raise or lower the signal; mRNA level, 48 h
# Procedure, shortened: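 ABCB11 transcript levels quantified by TaqMan qRT-PCR against three housekeeping genes after 48 h chemical exposure of HepaRG cultures. Concentrations up to 100 uM in half-log steps, 0.5% DMSO vehicle; both induction and suppression scored.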
# [17] = read-out: ABC Transporter (ABCC2), ABCC2 (gene 1244); assay: LTEA_HepaRG_ABCC2: Life Technologies and Expression Analysis (LTEA) Assay for ABC Transporter (ABCC2) using HepaRG (AID 2283464); conditions: actives raise or lower the signal; mRNA level, 48 h
# Procedure, shortened: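 Endpoint is ABCC2 transcript level from qRT-PCR, normalized to three housekeeping genes and fitted bidirectionally relative to DMSO. Human HepaRG cells received test chemical for 48 h at up to 100 uM (8 points, half-log steps, 0.5% DMSO), duplicate wells.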
# [18] = read-out: Broad substrate specificity ATP-binding cassette transporter ABCG2 (Homo sapiens) (UniProt Q9UNQ0); assay: LTEA_HepaRG_ABCG2: Life Technologies and Expression Analysis (LTEA) Assay for ABC Transporter (ABCG2) using HepaRG (AID 2283465); conditions: actives raise or lower the signal; mRNA level, 48 h
# Procedure, shortened: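 ABCG2 transcript was quantified by TaqMan qRT-PCR against three housekeeping genes in HepaRG cells. Cells were treated in duplicate for 48 h across an 8-point half-log series up to 100 uM, with 0.5% DMSO vehicle. Gain or loss versus DMSO was fit.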
# [19] = read-out: ATP-citrate lyase (ACLY), ACLY (gene 47); assay: LTEA_HepaRG_ACLY: Life Technologies and Expression Analysis (LTEA) Assay for ATP-citrate lyase (ACLY) using HepaRG (AID 2283466); conditions: actives raise or lower the signal; mRNA level, 48 h
# Procedure, shortened: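 ACLY mRNA quantified by qRT-PCR on Fluidigm arrays against three housekeeping genes, after 48 h chemical treatment of HepaRG cells (top concentration 100 uM, half-log steps, 0.5% DMSO vehicle). Up- or down-regulation fitted relative to DMSO.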
# [20] = read-out: Peroxisomal acyl-coenzyme A oxidase 1 (ACOX1) gene, ACOX1 (gene 51); assay: LTEA_HepaRG_ACOX1: Life Technologies and Expression Analysis (LTEA) Assay for Peroxisomal acyl-coenzyme A oxidase 1 (ACOX1) gene using HepaRG (AID 2283467); conditions: actives raise or lower the signal; mRNA level, 48 h
# Procedure, shortened: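 ACOX1 transcript levels were quantified by TaqMan qRT-PCR against three housekeeping genes after 48 h chemical exposure of differentiated human HepaRG cells. Exposure used eight half-log steps topping at 100 uM, 0.5% DMSO vehicle, in duplicate. Bidirectional curve fits were made relative to DMSO.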
structure (smiles),measurement,setting,value
Cc1c([N+](=O)[O-])cccc1[N+](=O)[O-],outcome,[1],inactive
same,outcome,[2],inactive
same,outcome,[3],inactive
same,outcome,[4],inactive
same,outcome,[5],inactive
same,outcome,[6],inactive
same,outcome,[7],inactive
same,outcome,[8],inactive
same,outcome,[9],inactive
same,outcome,[10],inactive
same,outcome,[11],inactive
same,outcome,[12],inactive
same,outcome,[13],inactive
same,outcome,[14],inactive
same,outcome,[15],inactive
same,outcome,[16],inactive
same,outcome,[17],inactive
same,outcome,[18],inactive
same,outcome,[19],inactive
same,outcome,[20],inactive
Cc1ccc([N+](=O)[O-])c([N+](=O)[O-])c1,outcome,[10],inactive
Cc1cccc([N+](=O)[O-])c1[N+](=O)[O-],outcome,[1],inactive
same,outcome,[2],inactive
same,outcome,[3],inactive
same,outcome,[4],inactive
same,outcome,[5],inactive
same,outcome,[6],inactive
same,AC50,[7],active: 35.8 µM
same,outcome,[8],inactive
same,outcome,[9],inactive
same,outcome,[10],inactive
same,outcome,[11],inactive
same,outcome,[12],inactive
same,outcome,[13],inactive
same,outcome,[14],inactive
same,outcome,[15],inactive
same,outcome,[16],inactive
same,outcome,[17],inactive
same,outcome,[18],inactive
same,outcome,[19],inactive
same,outcome,[20],inactive
O=[N+]([O-])c1cccc([N+](=O)[O-])c1,outcome,[1],inactive
same,outcome,[3],inactive
same,outcome,[4],inactive
same,outcome,[5],inactive
same,outcome,[6],inactive
same,AC50,[7],active: 23.7 µM
same,outcome,[8],inactive
same,outcome,[9],inactive
same,outcome,[11],inactive
same,outcome,[12],inactive
same,outcome,[13],inactive
same,outcome,[14],inactive
same,outcome,[15],inactive
same,outcome,[16],inactive
same,outcome,[17],inactive
same,outcome,[18],inactive
same,outcome,[19],inactive
same,outcome,[20],inactive
Cc1ccc([N+](=O)[O-])cc1[N+](=O)[O-],outcome,[1],inactive
same,outcome,[2],inactive
same,outcome,[3],inactive
same,outcome,[4],inactive
same,outcome,[5],inactive
same,outcome,[6],inactive
same,AC50,[7],active: 29.1 µM
same,outcome,[8],inactive
same,outcome,[9],inactive
same,outcome,[11],inactive
same,outcome,[12],inactive
same,outcome,[13],inactive
same,outcome,[14],inactive
same,outcome,[15],inactive
same,outcome,[16],inactive
same,outcome,[17],inactive
same,outcome,[18],inactive
same,outcome,[19],inactive
same,outcome,[20],inactive
CC(C)OP(C)(=O)OC(C)C,outcome,[1],inactive
same,outcome,[2],inactive
same,outcome,[3],inactive
same,outcome,[4],inactive
same,outcome,[5],inactive
same,outcome,[6],inactive
same,outcome,[7],inactive
same,outcome,[8],inactive
same,outcome,[9],inactive
same,outcome,[11],inactive
same,outcome,[12],inactive
same,outcome,[13],inactive
same,outcome,[14],inactive
same,outcome,[15],inactive
same,outcome,[16],inactive
same,outcome,[17],inactive
same,outcome,[18],inactive
same,outcome,[19],inactive
same,outcome,[20],inactive
